{"source": "ChEMBL document CHEMBL4831519", "about": "“Discovery of the first-in-class dual PPARδ/γ partial agonist for the treatment of metabolic syndrome” (Eur J Med Chem, 2021)", "type_in_all_cases": "functional, organism-based", "key": {"Mus musculus [1]": {"tested_on": "Mus musculus", "assay": "Improvement in glucose tolerance in high fat diet-fed C57BL/6 diabetic mouse model assessed as glucose lowering effect at 10 mg/kg, po administered once daily for 7 days and on day 7 treated at 30 mins prior to glucose challenge and measured up to 120 mins by blood glucose test", "details": "time 7.0 day"}, "Mus musculus [2]": {"tested_on": "Mus musculus", "assay": "Antidiabetic activity in ob/ob mouse assessed as reduction in polyphagia by measuring increase in food consumption at 10 mg/kg, po administered once daily for 30 days and measured daily", "details": "time 30.0 day"}, "Mus musculus [3]": {"tested_on": "Mus musculus", "assay": "Hepatoprotective activity in ob/ob mouse assessed as reduction in plasma alanine aminotransferase at 10 mg/kg, po administered once daily for 30 days", "details": "time 30.0 day"}, "Mus musculus [4]": {"tested_on": "Mus musculus", "assay": "Hepatoprotective activity in ob/ob mouse assessed as reduction in plasma aspartate transaminase at 10 mg/kg, po administered once daily for 30 days", "details": "time 30.0 day"}}, "note": "Activity calls are given as the source filed them. The rule behind the calls is not given here."}
{"smiles": "CN(CCOc1ccc(CC2SC(=O)NC2=O)cc1)c1ccccn1", "note": "(centres undefined) [ROSIGLITAZONE]", "values": [{"measurement": "Activity", "setting": "Mus musculus [1]", "value": "Active"}, {"measurement": "Activity", "setting": "Mus musculus [2]", "value": "inactive"}, {"measurement": "Activity", "setting": "Mus musculus [3]", "value": "Active"}, {"measurement": "Activity", "setting": "Mus musculus [4]", "value": "Active"}]}
